{
  "sequences": {"note": "Amino acid sequences for entries named in this document (tags omitted).", "UniProt P32300, whole entry": "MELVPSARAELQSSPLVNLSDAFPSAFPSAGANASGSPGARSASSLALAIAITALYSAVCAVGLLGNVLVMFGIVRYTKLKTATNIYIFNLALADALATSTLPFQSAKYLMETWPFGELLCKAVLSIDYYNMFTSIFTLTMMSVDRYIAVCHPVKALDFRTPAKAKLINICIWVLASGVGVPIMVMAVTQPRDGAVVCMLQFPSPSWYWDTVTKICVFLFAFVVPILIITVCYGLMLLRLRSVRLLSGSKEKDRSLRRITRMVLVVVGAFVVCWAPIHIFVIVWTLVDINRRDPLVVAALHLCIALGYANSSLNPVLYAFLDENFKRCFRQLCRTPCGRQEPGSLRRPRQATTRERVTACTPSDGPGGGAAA"},
  "source": "patent US4264492A",
  "about": "“Enkephalin-like compounds in bovine adrenal medulla” (Hoffmann-La Roche Inc., priority 1979, dated 1981)",
  "target": "T1, neuroblastoma x glioma hybrid cells (Mus musculus, UniProt P32300)",
  "T1 construct": "The radioreceptor assay employed neuroblastoma x glioma hybrid cells; endogenous in cells; host or cells: neuroblastoma x glioma hybrid cells",
  "experiment": "Radioreceptor assay (opioid activity) with ^3 H-Leuenkephalin as the competing ligand",
  "format": "binding",
  "conditions": "fractions from RP-18; 1.3 g wet weight of chromaffin granules isolated from 30 g of adrenal medulla",
  "data": [
    {"substance": "methionine enkephalin [Met Enk]", "values": [
      {"measurement": "Radioreceptor", "value": 1.0, "unit": "nmoles/fraction"}
    ]}
  ]
}
